Experimental data from patent publication US20120122107A1 (AARHUS UNIVERSITET, published 2012).

T1: MAp44 in human serum or plasma (native, also in purified MBL/MASP complexes) (human, UniProt P48740 20-363)
T1 construct: Native protein from normal human serum or plasma
T1 sequence: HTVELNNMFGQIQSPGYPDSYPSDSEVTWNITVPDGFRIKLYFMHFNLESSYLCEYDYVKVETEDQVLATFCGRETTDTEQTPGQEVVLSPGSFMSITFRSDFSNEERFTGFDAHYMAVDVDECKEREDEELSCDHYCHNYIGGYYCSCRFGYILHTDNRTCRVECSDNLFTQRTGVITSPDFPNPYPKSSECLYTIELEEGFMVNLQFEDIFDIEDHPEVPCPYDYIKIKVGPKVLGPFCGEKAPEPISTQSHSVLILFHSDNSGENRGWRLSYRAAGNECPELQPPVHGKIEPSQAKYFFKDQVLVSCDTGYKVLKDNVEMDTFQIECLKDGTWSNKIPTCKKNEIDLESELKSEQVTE


Legend:
[1] = target: T1, MAp44 in human serum or plasma (native, …); assay: TRIFMA: H-ficolin captured from human serum, probed in situ with anti-MAp44
Source text: (§1) FIG. 3. Association of MAP44 with MBL and ficolins in serum. A, MBL and ficolins were captured from human serum in microtiter wells coated with anti-MBL, anti-L-ficolin or anti-H-ficolin antibody. Non-specific monoclonal IgG₁ served as control. Bound MBL or ficolins, together with associated proteins, were eluted with SDS-sample buffer, applied to non-reducing SDS-PAGE and analyzed by Western blotting using rabbit anti-MAP44 antibody. Sample ID for each lane is denoted at the top. Purified MBL/MASP complexes (positive control) were also tested. The black lines indicate excision of irrelevant lanes. The Mw in kDa of each band of the marker is given on the right side. The experiment was repeated twice with similar results. B, MBL or ficolins were captured in microtiter wells and specific antibodies were used to detect MAP44. The capture antibodies are given below the x-axis. The signal was detected by time-resolved fluorometry and is given on the y-axis as counts per second. The error bars indicate the standard deviation of duplicate measurements. C, similar to B, but in this case development was with anti-MASP-3 antibody.
(§2) In addition, we similarly captured MBL and ficolins from serum and probed in situ with anti-MAp44 or anti-MASP-3 antibodies. […]

[2] = target: T1, MAp44 in human serum or plasma (native, …); assay: TRIFMA: L-ficolin captured from human serum, probed in situ with anti-MAp44
Source text: as §1, §2

Binder	binding result [1]	binding result [2]
H-ficolin in human serum (other, UniProt O75636 24-299, looked up, mature; Native serum protein captured with mAb 4H5; also called ficolin-3) QEHPSCPGPRELEASKVVLLPSCPGAPGSPGEKGAPGPQGPPGPPGKMGPKGEPGDPVNLLRCQEGPRNCRELLSQGATLSGWYHLCLPEGRALPVFCDMDTEGGGWLVFQRRQDGSVDFFRSWSSYRAGFGNQESEFWLGNENLHQLTLQGNWELRVELEDFNGNRTFAHYATFRLLGEVDHYQLALGKFSEGTAGDSLSLHSGRPFTTYDADHDSSNSNCAVIVHGAWWYASCYRSNLNGRYAVSEAAAHKYGIDWASGRGVGHPYRRVRMMLR	binds	
L-ficolin in human serum (other, UniProt Q15485 26-313, looked up, mature; Native serum protein captured with mAb GN5; also called ficolin-2) LQAADTCPEVKMVGLEGSDKLTILRGCPGLPGAPGPKGEAGTNGKRGERGPPGPPGKAGPPGPNGAPGEPQPCLTGPRTCKDLLDRGHFLSGWHTIYLPDCRPLTVLCDMDTDGGGWTVFQRRVDGSVDFYRDWATYKQGFGSRLGEFWLGNDNIHALTAQGTSELRVDLVDFEDNYQFAKYRSFKVADEAEKYNLVLGAFVEGSAGDSLTFHNNQSFSTKDQDNDLNTGNCAVMFQGAWWYKNCHVSNLNGRYLRGTHGSFANGINWKSGKGYNYSYKVSEMKVRPA		binds
